## Yeast mating assay B: variants of the scFv Ab-14

Binding partner: SARS-CoV-2 spike HR2 peptide, sequence PDVDLGDISGINAS.

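The starting antibody came from a phage panning campaign against this peptide. These sequences belong to a second round, designed from the earlier measurements on random variants of the parent. Several design methods are mixed in this list. Affinity was read by AlphaSeq, a pooled yeast mating assay with surface-displayed partners. Mating (16 h, 30 °C) was followed by selection of diploids and sequencing of their barcodes. A regression on co-assayed BCL2-family reference pairs converts the normalised counts of each replicate to an apparent Kd. The assay was run in six technical replicates.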

The variants keep the heavy chain, the linker and the frameworks of Ab-14 (scFv order VH, a 15-residue (Gly4Ser)3 linker, VL).
VH: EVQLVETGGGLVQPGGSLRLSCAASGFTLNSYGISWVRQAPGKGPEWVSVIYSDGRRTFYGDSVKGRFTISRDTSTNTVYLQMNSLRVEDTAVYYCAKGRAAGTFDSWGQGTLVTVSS
VL: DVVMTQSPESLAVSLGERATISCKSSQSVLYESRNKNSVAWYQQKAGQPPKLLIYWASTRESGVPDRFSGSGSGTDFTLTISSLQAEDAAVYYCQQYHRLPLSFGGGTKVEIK

Variants are written as CDR1, CDR2 and CDR3 of the light chain (limits as in the source). Parent: KSSQSVLYESRNKNSVA, WASTRES, QQYHRLPLS.
This list holds designs with more than six substitutions.
Each Kd is an estimate from the mating assay, the geometric mean of the replicates in which the pair was seen; lower is stronger.
Where no diploid with the target was found in any replicate, the entry reads "no signal": below detection, most likely a poor binder, though not proof of it.
A sequence measured in both rounds can read differently, since the two assays cover different ranges.
The authors averaged sequences with at least three values out of six and counted those with two or fewer as poor binders.
The parent sequence was in this pool as ten entries: three were never detected, three once, and four in most replicates, with averages from 2.2 nM to 240 nM.
As a blank, each scFv also met three strains without target: over all light chain designs, 4% of these pairings were detected, typically at 430 nM and seldom below 38 nM. For each scFv, signals with the empty controls are counted beside the result.

CDR-L1	CDR-L2	CDR-L3	Kd	detected	signal with controls
KLYQMTGIESHAKNSLA	DANRRES	QQYHRLPLS	1.6 nM	6 of 6	2 of 18
KQQFSSGGGSRNKNSVA	EASTRES	QQYHRLPLS	1.3 nM	6 of 6	0 of 18
KLSQLFYKESRNKNNVA	EMTTRGS	QQYDRLPLS	2.1 nM	6 of 6	1 of 18
KIGMTLNQLMQKKNNVA	DLVEREN	QQYFRLPLS	1.4 nM	6 of 6	1 of 18
MVNNIMDHLSKQTNNVA	ETVTREE	QQYERLPLS	8.7 nM	6 of 6	1 of 18
KITHQMRTGMMQRSAMA	NGAMRVE	QFYSRLPLF	2.0 µM	2 of 6	2 of 18
KLSGSMLYESRNKNNVA	DAHQRES	QMYHRLPLS	520 nM	3 of 6	0 of 18
QIQFLDVQYGVKEQAIA	EENQRDQ	QHYFRLPLS	no signal	0 of 6	0 of 18
NISESMYYQTRNKNNIA	EMSTRER	QHYHRLPLS	4.1 nM	6 of 6	3 of 18
KISMTSENQLKNRNSVA	ELVTRMN	QQYNRLPLS	14 nM	6 of 6	0 of 18
TISQVMNTLTRNGNNVA	DLQEREK	QQYFRLPLT	570 pM	6 of 6	0 of 18
KFSQSQPYESRMFNSVA	NASLRFS	QQYHRLPLS	44 nM	6 of 6	0 of 18
TISELYNQALGTRNNVA	NNQTRED	QQYARLPLS	no signal	0 of 6	0 of 18
KITATMRFEQKIKNNIA	EVSTRSK	QQYVRLPLA	8.6 nM	6 of 6	3 of 18
KLSASQLYESRASNAVA	QASTRMM	QQYHRLPLS	1.6 nM	6 of 6	1 of 18
KVDQEVDGQSRNKNSVA	DASQREW	QQYHRLPLS	930 pM	6 of 6	2 of 18
KWQQSQDYESRNFNSVA	NASTRCT	QQYHRLPLS	1.2 nM	6 of 6	1 of 18
MMSQVTGQGTRHRNNVA	QTEVREP	QQYDRLPLI	3.9 nM	6 of 6	0 of 18
KQSFMVMEGSRNKNSVA	EASQREE	QQYHRLPLS	1.2 µM	1 of 6	0 of 18
RLTHNTFVLDRDKYSIA	DSEVKME	QQYNQLPLS	520 nM	5 of 6	1 of 18
KIGMTLNTLMHQKNNVA	DLVQREN	QQYFRLPLS	11 nM	6 of 6	0 of 18
KHEEGVWYESRNKNSVA	NASTRLS	QQYHRLPLS	650 pM	6 of 6	1 of 18
NLTTGYRQGALNTDSVA	HGNMRCA	QQYYRLPLS	1.5 nM	6 of 6	0 of 18
TIGHTLMQGVRNRSNVA	EVSERLN	QQYDRLPLI	70 nM	6 of 6	0 of 18
KIGQQVTYESTMRNAIA	QMTTREE	QQYHRLPLS	2.8 nM	6 of 6	2 of 18
QLEFRDVQGGAEWHAIA	EASQLGQ	QQYFHLPLG	11 nM	6 of 6	2 of 18
KMKQSMEGNPKNWNSVA	DVESAKE	QQYARLPLM	42 nM	6 of 6	0 of 18
NLSGHQYNNSQYKNSIA	EDNNIRL	QQYHRLPFT	160 nM	4 of 6	2 of 18
KLSSFHNVESINKSNVA	EMVTREN	QQYDRLPLS	68 nM	4 of 6	0 of 18
KIGMTLNTMLHQKNNVA	DLVEREN	QQYFRLPLS	1.7 nM	6 of 6	1 of 18
VLEQSQLYESRNKNSVA	NASQRER	QQYHRLPLS	930 pM	6 of 6	2 of 18
KISMLVNFLGKNKNSVA	QMSTREE	QQYDRLPLS	4.4 nM	6 of 6	1 of 18
ILYESVGTLSRQKNSVA	DNSTRES	QQYDRLPLS	770 nM	4 of 6	2 of 18
RMNKFMSEIGGARNSIA	GADHLAQ	QHYHRLPLS	11 nM	6 of 6	1 of 18
SLYENYQMGGLHTNAIA	DANQMMR	QHYNRLPLA	1.7 nM	6 of 6	0 of 18
HISYSMAHLSKNKNSVA	NQQTRES	QQYHRLPLS	9.5 nM	6 of 6	1 of 18
HLGLATMLEETRVNSVA	NNSTRED	QQYDRLPLS	99 nM	1 of 6	0 of 18
KLWAYFQGLESNMQNVA	DGIYRST	QQYDRLPLS	9.2 nM	6 of 6	0 of 18
TISYSALMTGLNRNSVA	QAEERLE	QQYHRLPLS	38 nM	6 of 6	0 of 18
TISQLMNMGTFAINSVA	QAEIRNA	QQYDRLPLA	13 nM	6 of 6	1 of 18
MISDVMNTLTRNGDNVA	DLQEREQ	QQYFRLPLS	4.0 nM	3 of 6	0 of 18
KVSSFMRGLMMRTDSIA	DNETRQS	QQYDRLPLS	40 nM	5 of 6	0 of 18
MLSQMWAIGMKVSNSVA	QASTRFD	QQYERLPLI	31 nM	2 of 6	1 of 18
KLSVSWLFESIEKNSVA	ERSTREH	QDYNRLPLS	3.1 nM	3 of 6	0 of 18
KLSQGTYGLTGHASNVA	HDEMRWA	QQYDKLPLI	no signal	0 of 6	0 of 18
VVQQNFIDGMERQYSVA	ETSRVME	QQYFHLPLI	3.1 nM	6 of 6	0 of 18
HISPMQAYAYEAKNSVA	DNETKLN	QQYIRLPLT	2.5 nM	6 of 6	0 of 18
KLSPSWLGEERNDNSVA	NASTRES	QQYHRLPLS	1.9 nM	6 of 6	1 of 18
KLVQSELYESRNTNSVA	NASQRCS	QQYHRLPLS	1.3 nM	6 of 6	0 of 18

The opening 5 entries, copied out:

CDR-L1,CDR-L2,CDR-L3,Kd,detected,signal with controls
KLYQMTGIESHAKNSLA,DANRRES,QQYHRLPLS,1.6 nM,6 of 6,2 of 18
KQQFSSGGGSRNKNSVA,EASTRES,QQYHRLPLS,1.3 nM,6 of 6,0 of 18
KLSQLFYKESRNKNNVA,EMTTRGS,QQYDRLPLS,2.1 nM,6 of 6,1 of 18
KIGMTLNQLMQKKNNVA,DLVEREN,QQYFRLPLS,1.4 nM,6 of 6,1 of 18
MVNNIMDHLSKQTNNVA,ETVTREE,QQYERLPLS,8.7 nM,6 of 6,1 of 18

Source: Li et al. 2023 (doi:10.1038/s41467-023-39022-2), MIT Lincoln Laboratory and A-Alpha Bio; data file from the FLAb repository.